Results reported in PMC12678819, “Targeting bacterial kinases as a strategy to counteract antibiotic resistance” (2025).

Sequences of proteins named here, by UniProt entry; tags and fusion partners are left off. A change or cut given only in a name is not applied to a line headed by its entry. Residues count along the entry.
UniProt O96017, 220-486 limits assumed: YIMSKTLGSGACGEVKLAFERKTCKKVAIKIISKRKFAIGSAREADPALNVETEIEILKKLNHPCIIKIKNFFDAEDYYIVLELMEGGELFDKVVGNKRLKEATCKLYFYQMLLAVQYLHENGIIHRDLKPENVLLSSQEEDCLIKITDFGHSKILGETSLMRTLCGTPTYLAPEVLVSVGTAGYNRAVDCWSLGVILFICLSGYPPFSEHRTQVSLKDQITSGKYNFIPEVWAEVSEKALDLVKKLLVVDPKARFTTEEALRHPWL
UniProt Q9H4A3, 206-483 limits assumed: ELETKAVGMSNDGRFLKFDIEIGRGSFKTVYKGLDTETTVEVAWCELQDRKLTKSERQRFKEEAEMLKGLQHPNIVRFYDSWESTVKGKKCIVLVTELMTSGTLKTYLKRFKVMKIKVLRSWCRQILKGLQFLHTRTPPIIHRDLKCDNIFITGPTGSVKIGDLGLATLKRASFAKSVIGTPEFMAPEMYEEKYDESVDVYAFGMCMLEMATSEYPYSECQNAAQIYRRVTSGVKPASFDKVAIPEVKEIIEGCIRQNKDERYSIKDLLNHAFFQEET
UniProt Q96GD4, 77-327 limits assumed: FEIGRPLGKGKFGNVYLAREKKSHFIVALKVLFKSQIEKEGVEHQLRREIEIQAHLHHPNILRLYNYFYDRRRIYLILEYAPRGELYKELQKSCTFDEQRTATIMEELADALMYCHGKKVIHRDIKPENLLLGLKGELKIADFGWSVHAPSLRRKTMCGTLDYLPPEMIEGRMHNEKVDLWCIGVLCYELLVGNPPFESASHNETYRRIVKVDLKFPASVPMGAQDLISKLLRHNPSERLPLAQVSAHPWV
UniProt Q13557, 14-272 limits assumed: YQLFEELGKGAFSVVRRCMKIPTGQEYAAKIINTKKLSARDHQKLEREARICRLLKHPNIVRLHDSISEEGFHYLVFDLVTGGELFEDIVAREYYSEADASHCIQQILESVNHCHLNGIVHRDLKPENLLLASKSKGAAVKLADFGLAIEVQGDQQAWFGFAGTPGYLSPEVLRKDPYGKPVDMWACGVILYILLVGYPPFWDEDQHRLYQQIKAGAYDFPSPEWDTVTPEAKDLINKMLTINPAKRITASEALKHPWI
UniProt P49761, 156-472 limits assumed: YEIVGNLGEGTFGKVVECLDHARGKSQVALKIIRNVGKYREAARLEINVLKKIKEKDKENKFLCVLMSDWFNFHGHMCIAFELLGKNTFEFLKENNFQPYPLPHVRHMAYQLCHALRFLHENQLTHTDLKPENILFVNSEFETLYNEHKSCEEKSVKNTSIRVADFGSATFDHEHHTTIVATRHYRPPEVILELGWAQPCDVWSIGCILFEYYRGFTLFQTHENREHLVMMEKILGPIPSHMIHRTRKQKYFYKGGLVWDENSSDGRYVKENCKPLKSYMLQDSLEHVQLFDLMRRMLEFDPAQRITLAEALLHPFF
UniProt Q99683, 659-951 limits assumed: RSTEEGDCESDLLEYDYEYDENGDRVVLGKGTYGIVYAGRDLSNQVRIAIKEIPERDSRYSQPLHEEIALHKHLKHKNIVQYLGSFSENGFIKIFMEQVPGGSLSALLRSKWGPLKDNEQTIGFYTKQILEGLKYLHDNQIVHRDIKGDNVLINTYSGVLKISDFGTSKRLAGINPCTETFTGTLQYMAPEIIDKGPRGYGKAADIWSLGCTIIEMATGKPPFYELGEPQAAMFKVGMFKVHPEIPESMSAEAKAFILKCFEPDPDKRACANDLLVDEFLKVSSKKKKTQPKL
UniProt O15075, 372-649 limits assumed: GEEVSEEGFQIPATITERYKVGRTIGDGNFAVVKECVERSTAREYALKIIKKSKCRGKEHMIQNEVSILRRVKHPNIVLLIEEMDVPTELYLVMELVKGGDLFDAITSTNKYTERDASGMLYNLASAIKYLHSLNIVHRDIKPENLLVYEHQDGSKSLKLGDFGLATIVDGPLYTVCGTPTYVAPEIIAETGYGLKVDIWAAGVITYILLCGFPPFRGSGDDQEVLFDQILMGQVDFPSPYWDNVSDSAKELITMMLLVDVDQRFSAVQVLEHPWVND
UniProt Q8IU85: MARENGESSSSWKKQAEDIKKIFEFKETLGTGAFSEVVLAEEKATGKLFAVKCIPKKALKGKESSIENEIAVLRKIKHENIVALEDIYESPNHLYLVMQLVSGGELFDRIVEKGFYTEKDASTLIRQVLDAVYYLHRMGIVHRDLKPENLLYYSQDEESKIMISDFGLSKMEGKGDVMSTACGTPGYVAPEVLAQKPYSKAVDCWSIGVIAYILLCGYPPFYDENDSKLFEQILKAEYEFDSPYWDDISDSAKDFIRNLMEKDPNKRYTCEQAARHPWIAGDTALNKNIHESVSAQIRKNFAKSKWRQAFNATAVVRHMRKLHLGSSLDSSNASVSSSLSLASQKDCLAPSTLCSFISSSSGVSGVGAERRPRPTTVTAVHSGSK
UniProt Q9H2X6, 199-527 limits assumed: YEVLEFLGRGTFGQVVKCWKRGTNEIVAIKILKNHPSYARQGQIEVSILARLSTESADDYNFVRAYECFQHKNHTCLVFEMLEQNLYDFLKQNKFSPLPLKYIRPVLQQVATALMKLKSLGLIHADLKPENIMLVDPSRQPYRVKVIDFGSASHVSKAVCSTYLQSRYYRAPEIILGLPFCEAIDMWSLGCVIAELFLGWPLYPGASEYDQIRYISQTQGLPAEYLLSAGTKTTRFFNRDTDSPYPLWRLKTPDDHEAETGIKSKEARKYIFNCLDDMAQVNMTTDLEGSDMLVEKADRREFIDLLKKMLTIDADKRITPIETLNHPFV
UniProt Q99640, 75-362 limits assumed: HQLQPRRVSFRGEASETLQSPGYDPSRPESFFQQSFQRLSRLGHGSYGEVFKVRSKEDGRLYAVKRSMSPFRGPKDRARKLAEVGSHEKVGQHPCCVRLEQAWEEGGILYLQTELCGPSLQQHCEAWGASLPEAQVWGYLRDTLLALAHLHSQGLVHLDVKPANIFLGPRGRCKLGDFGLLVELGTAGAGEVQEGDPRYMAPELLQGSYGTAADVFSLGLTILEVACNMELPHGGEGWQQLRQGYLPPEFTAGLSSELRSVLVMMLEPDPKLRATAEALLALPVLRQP
UniProt P15056, 457-717 limits assumed: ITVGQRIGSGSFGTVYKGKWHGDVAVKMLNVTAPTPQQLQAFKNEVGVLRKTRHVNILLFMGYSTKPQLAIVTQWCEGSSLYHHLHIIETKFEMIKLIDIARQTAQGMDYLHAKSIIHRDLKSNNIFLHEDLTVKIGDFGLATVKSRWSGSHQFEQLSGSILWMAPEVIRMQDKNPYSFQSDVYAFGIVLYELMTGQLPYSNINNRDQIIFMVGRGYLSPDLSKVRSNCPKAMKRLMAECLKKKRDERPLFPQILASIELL
UniProt Q9NSY1, 38-345 limits assumed: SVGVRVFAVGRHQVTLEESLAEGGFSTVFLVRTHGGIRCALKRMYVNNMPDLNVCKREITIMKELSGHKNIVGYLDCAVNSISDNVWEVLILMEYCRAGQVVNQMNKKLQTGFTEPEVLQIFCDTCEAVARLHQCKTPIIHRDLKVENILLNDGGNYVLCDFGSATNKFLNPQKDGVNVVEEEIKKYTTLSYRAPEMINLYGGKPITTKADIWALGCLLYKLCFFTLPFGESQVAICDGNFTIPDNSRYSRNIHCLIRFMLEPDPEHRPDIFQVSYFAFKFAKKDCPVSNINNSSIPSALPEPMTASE
UniProt Q5VT25, 77-343 limits assumed: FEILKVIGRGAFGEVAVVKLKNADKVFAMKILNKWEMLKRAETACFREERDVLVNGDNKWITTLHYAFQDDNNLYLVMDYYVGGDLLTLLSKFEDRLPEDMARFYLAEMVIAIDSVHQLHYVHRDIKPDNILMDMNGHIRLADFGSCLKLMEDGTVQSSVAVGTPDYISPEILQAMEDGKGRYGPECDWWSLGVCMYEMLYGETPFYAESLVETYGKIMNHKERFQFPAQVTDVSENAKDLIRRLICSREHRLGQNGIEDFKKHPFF
UniProt O15164: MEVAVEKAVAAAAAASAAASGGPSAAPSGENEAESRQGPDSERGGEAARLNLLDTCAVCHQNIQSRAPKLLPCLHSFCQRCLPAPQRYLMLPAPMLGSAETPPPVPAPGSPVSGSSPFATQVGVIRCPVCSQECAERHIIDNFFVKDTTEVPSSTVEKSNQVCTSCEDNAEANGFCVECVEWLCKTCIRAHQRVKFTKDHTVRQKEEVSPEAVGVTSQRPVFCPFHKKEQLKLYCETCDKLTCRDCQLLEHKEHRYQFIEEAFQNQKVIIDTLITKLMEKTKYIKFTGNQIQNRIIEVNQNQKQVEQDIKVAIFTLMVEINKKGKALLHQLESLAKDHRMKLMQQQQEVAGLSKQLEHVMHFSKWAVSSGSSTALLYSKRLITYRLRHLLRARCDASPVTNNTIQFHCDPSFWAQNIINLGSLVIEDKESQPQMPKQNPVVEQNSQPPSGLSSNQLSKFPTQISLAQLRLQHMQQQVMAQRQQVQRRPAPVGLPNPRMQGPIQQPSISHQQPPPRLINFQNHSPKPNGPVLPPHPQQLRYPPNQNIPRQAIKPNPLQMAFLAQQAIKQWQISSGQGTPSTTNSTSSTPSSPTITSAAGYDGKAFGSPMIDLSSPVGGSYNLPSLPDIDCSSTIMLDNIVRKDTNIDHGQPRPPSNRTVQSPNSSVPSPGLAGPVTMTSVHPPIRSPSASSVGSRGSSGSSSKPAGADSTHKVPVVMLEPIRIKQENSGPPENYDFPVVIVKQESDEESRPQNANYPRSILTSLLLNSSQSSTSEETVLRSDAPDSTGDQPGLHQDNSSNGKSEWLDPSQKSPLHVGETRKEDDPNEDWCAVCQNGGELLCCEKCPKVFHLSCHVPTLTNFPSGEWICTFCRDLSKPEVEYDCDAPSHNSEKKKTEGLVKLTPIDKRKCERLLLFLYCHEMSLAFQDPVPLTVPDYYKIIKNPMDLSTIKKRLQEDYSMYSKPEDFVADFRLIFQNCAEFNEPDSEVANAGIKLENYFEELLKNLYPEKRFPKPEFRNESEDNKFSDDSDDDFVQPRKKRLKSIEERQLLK
UniProt Q8TD08, 13-304 limits assumed: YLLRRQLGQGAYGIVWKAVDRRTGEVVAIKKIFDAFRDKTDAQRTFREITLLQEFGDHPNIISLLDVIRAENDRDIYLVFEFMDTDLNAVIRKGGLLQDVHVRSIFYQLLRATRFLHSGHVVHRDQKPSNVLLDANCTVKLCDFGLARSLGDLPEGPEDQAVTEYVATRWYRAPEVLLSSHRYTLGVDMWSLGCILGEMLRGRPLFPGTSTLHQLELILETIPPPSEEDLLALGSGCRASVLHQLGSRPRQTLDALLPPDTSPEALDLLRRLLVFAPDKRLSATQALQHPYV
UniProt P54764, 621-882 limits assumed: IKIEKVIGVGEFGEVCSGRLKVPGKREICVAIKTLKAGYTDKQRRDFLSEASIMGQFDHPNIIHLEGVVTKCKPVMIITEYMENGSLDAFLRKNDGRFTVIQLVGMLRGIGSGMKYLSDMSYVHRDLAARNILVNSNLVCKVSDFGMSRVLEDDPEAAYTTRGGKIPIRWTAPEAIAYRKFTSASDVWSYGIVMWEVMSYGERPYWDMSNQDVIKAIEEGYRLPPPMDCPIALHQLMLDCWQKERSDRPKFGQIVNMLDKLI
UniProt Q99986: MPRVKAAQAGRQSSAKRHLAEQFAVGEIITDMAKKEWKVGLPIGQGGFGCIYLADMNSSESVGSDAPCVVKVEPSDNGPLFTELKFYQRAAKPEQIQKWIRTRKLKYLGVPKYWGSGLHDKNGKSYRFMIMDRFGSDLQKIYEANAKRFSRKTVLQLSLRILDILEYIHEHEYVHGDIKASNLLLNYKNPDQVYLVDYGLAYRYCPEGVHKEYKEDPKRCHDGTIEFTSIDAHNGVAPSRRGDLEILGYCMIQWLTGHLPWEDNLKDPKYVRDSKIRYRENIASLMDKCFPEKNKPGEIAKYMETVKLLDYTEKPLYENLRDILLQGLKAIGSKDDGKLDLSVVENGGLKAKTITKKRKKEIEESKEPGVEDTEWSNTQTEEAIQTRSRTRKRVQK
UniProt P27448, 56-307 limits assumed: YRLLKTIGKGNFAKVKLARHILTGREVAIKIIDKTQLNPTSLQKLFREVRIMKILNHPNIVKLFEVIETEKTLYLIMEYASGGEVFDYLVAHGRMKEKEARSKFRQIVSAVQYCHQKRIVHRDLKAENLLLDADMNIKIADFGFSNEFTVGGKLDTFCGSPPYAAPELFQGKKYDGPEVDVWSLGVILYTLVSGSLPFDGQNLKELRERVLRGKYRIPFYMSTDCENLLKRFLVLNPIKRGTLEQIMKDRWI
UniProt O00444, 2-275 limits assumed: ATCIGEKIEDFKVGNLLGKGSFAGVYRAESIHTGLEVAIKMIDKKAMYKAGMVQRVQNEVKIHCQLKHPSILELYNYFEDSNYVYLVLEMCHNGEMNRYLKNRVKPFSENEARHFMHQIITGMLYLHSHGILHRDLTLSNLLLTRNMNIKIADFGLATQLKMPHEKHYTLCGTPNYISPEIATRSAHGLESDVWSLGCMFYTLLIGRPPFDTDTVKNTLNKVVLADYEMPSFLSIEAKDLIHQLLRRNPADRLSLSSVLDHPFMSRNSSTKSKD
UniProt P00519, 242-493 limits assumed: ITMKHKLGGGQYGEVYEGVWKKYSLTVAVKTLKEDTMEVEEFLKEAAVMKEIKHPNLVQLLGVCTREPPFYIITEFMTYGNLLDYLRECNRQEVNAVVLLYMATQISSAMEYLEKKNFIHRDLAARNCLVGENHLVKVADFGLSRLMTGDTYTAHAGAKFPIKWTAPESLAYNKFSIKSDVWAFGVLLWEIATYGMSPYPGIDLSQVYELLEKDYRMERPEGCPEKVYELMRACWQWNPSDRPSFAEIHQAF

Tests used:
Assay in all cases: DSF kinase panel
Conditions in all cases: 10 μM
EPHB3 = EPHB3 (Homo sapiens, UniProt P54753)
CHK2 = CHK2 (Homo sapiens, UniProt O96017)
WNK1 = WNK1 (Homo sapiens, UniProt Q9H4A3)
MSSK1 = MSSK1 (Homo sapiens, UniProt Q9UPE1)
EPHA5 = EPHA5 (Homo sapiens, UniProt P54756)
AURKB = AURKB (Homo sapiens, UniProt Q96GD4)
CAMK2D = CAMK2D (Homo sapiens, UniProt Q13557)
CLK3 = CLK3 (Homo sapiens, UniProt P49761)
MAPKAPK2 = MAPKAPK2 (Homo sapiens, UniProt P49137)
MAP3K5 = MAP3K5 (Homo sapiens, UniProt Q99683)
DCAMKL1 = DCAMKL1 (Homo sapiens, UniProt O15075)
CAMK1D = CAMK1D (Homo sapiens, UniProt Q8IU85)
DRAK1 = DRAK1 (Homo sapiens, UniProt Q9UEE5)
PAK1 = PAK1 (Homo sapiens, UniProt Q13153)
CASK = CASK (Homo sapiens, UniProt O14936)
MST4 = MST4 (Homo sapiens, UniProt Q9P289)
HIPK2 = HIPK2 (Homo sapiens, UniProt Q9H2X6)
CDKL1 = CDKL1 (Homo sapiens, UniProt Q00532)
MYT1 = MYT1 (Homo sapiens, UniProt Q99640)
RSK1_b = RSK1_b (Homo sapiens, UniProt Q15418)
BRAF = BRAF (Homo sapiens, UniProt P15056)
NQO2 = NQO2 (Homo sapiens, UniProt P16083)
BIKE = BIKE (Homo sapiens, UniProt Q9NSY1)
SLK = SLK (Homo sapiens, UniProt Q9H2G2)
MRCKa = MRCKa (Homo sapiens, UniProt Q5VT25)
TIF1 = TIF1 (Homo sapiens, UniProt O15164)
CAMK4 = CAMK4 (Homo sapiens, UniProt Q16566)
PHKg2 = PHKg2 (Homo sapiens, UniProt P15735)
PIM3 = PIM3 (Homo sapiens, UniProt Q86V86)
FGFR1 = FGFR1 (Homo sapiens, UniProt P11362)
MAPK15 = MAPK15 (Homo sapiens, UniProt Q8TD08)
DRAK2 = DRAK2 (Homo sapiens, UniProt O94768)
EPHA4 = EPHA4 (Homo sapiens, UniProt P54764)
JNK2 = JNK2 (Homo sapiens, UniProt P45984)
VRK1 = VRK1 (Homo sapiens, UniProt Q99986)
MARK3 = MARK3 (Homo sapiens, UniProt P27448)
PLK4 = PLK4 (Homo sapiens, UniProt O00444)
DYRK2 = DYRK2 (Homo sapiens, UniProt Q92630)
ABL1 = ABL1 (Homo sapiens, UniProt P00519)
MAP2K1 = MAP2K1 (Homo sapiens, UniProt Q02750)
EPHB1 = EPHB1 (Homo sapiens, UniProt P54762)

OC[C@H](O)Cn1cc(-c2c(Cl)cnc3[nH]ccc23)nn1
ΔTm EPHB3 (EPHB3): -1.8 °C
ΔTm CHK2 (CHK2): 2.7 °C
ΔTm WNK1 (WNK1): -0.2 °C
ΔTm MSSK1 (MSSK1): -0.6 °C
ΔTm EPHA5 (EPHA5): -0.6 °C
ΔTm AURKB (AURKB): 6.0 °C
ΔTm CAMK2D (CAMK2D): -0.9 °C
ΔTm CLK3 (CLK3): 0.8 °C
ΔTm MAPKAPK2 (MAPKAPK2): -2.3 °C
ΔTm MAP3K5 (MAP3K5): 6.4 °C
ΔTm DCAMKL1 (DCAMKL1): -0.2 °C
ΔTm CAMK1D (CAMK1D): 1.6 °C
ΔTm DRAK1 (DRAK1): 2.6 °C
ΔTm PAK1 (PAK1): -1.0 °C
ΔTm CASK (CASK): -0.7 °C
ΔTm MST4 (MST4): -1.2 °C
ΔTm HIPK2 (HIPK2): 1.0 °C
ΔTm CDKL1 (CDKL1): 0.2 °C
ΔTm MYT1 (MYT1): -0.6 °C
ΔTm RSK1_b (RSK1_b): 1.0 °C
ΔTm BRAF (BRAF): 0.9 °C
ΔTm NQO2 (NQO2): -0.7 °C
ΔTm BIKE (BIKE): 9.1 °C
ΔTm SLK (SLK): -0.6 °C
ΔTm MRCKa (MRCKa): 0.2 °C
ΔTm TIF1 (TIF1): -0.3 °C
ΔTm CAMK4 (CAMK4): -0.9 °C
ΔTm PHKg2 (PHKg2): 1.1 °C
ΔTm PIM3 (PIM3): 0.8 °C
ΔTm FGFR1 (FGFR1): 1.3 °C
ΔTm MAPK15 (MAPK15): 2.7 °C
ΔTm DRAK2 (DRAK2): 2.6 °C
ΔTm EPHA4 (EPHA4): 0.0 °C
ΔTm JNK2 (JNK2): 0.4 °C
ΔTm VRK1 (VRK1): -0.3 °C
ΔTm MARK3 (MARK3): 2.3 °C
ΔTm PLK4 (PLK4): 3.1 °C
ΔTm DYRK2 (DYRK2): 3.9 °C
ΔTm ABL1 (ABL1): 1.6 °C
ΔTm MAP2K1 (MAP2K1): 0.3 °C
ΔTm EPHB1 (EPHB1): 0.2 °C

C[C@H](O)Cn1cc(-c2c(Cl)cnc3[nH]ccc23)nn1
ΔTm EPHB3 (EPHB3): 1.3 °C
ΔTm CHK2 (CHK2): 2.2 °C
ΔTm WNK1 (WNK1): -0.2 °C
ΔTm MSSK1 (MSSK1): -0.1 °C
ΔTm EPHA5 (EPHA5): -0.4 °C
ΔTm AURKB (AURKB): 6.0 °C
ΔTm CAMK2D (CAMK2D): -0.1 °C
ΔTm CLK3 (CLK3): 1.3 °C
ΔTm MAPKAPK2 (MAPKAPK2): 0.5 °C
ΔTm MAP3K5 (MAP3K5): 6.5 °C
ΔTm DCAMKL1 (DCAMKL1): 0.6 °C
ΔTm CAMK1D (CAMK1D): 1.3 °C
ΔTm DRAK1 (DRAK1): 4.0 °C
ΔTm PAK1 (PAK1): -0.5 °C
ΔTm CASK (CASK): 0.1 °C
ΔTm MST4 (MST4): -0.1 °C
ΔTm HIPK2 (HIPK2): 0.9 °C
ΔTm CDKL1 (CDKL1): 0.6 °C
ΔTm MYT1 (MYT1): -0.7 °C
ΔTm RSK1_b (RSK1_b): 1.3 °C
ΔTm BRAF (BRAF): 1.0 °C
ΔTm NQO2 (NQO2): -0.3 °C
ΔTm BIKE (BIKE): 9.2 °C
ΔTm SLK (SLK): -0.2 °C
ΔTm MRCKa (MRCKa): 0.5 °C
ΔTm TIF1 (TIF1): -0.4 °C
ΔTm CAMK4 (CAMK4): -2.5 °C
ΔTm PHKg2 (PHKg2): 1.4 °C
ΔTm PIM3 (PIM3): 0.9 °C
ΔTm FGFR1 (FGFR1): 1.6 °C
ΔTm MAPK15 (MAPK15): 3.2 °C
ΔTm DRAK2 (DRAK2): 2.2 °C
ΔTm EPHA4 (EPHA4): 0.2 °C
ΔTm JNK2 (JNK2): 0.6 °C
ΔTm VRK1 (VRK1): -0.1 °C
ΔTm MARK3 (MARK3): 2.5 °C
ΔTm PLK4 (PLK4): 3.8 °C
ΔTm DYRK2 (DYRK2): 3.9 °C
ΔTm ABL1 (ABL1): 1.7 °C
ΔTm MAP2K1 (MAP2K1): 0.3 °C
ΔTm EPHB1 (EPHB1): 0.3 °C
